High-throughput results deposited in PubChem BioAssay by National Center for Advancing Translational Sciences (NCATS).
ERG-DNA inh = blocks human ERG Ets domain binding to DNA; P11308; fluorescence polarization, His-ERG Ets domain / labelled DNA; Potency, µM (highest dose often 76.9 µM), for inactives: at the highest dose FP activity, negative = inhibition, usual class: inhibitors; 370,000 tested, 0.028% active; AID 624246; active = well fitted inhibition curve with a large enough effect in the polarisation, with a control signal flat; inconclusive = small, poorly fitted or top-dose-only effect, or effect the other way, or a change in a side signal; inactive = no such curve, though single readings can be large or run the other way; the % refers to the polarisation;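 also: polarization taken with two DNA probes labelled with fluorescein and Texas red; potency is read from the fitted curve at half-maximal effect; % of control where 0% means no effect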
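His-tagged ERG Ets domain (1 uM in the protein solution; 300mM KCl, 50mM Tris-HCl, 1mM EDTA, 1mM DTT, pH 7.5) received compound, then a probe mix of 5 nM fluorescein-DNA and 100nM Texas-615-DNA. Fluorescence polarization was read for both dyes.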
PINK1 expr mod = PINK1 expression modulation; Potency, µM (series often up to 76.6 µM), without a hit: at the highest dose activation (PINK1 increase), actives largely listed as activators; AID 624263; 410,000 tested, 0.2% active; PINK1 immunofluorescence, high-content cytometry, 24 h; active = well fitted activation curve with a large enough effect; inconclusive = small, poorly fitted or top-dose-only effect; cell line not stated here; also: potency is read from the fitted curve at half-maximal effect; % of control where 0% means no effect; nearly all actives have a fitted effect of over 65% in size
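Compound titrations (5 concentrations, 24 h) on a stable cell line; DMSO and CCCP controls. Endpoint: fixed-cell PINK1 immunofluorescence with mitochondrial, cell and nuclear markers, scanned by microplate cytometer.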
12-LOX inh = blocks human arachidonate 12S-lipoxygenase; purified 12hLO, xylenol orange hydroperoxide absorbance; Potency, µM (top dose mostly 108 µM), for the others: at the highest dose activity change, negative = inhibition, usual class: inhibitors; 580,000 tested, 1.1% active; also: potency is read from the fitted curve at half-maximal effect; % is scaled to controls: 0 for no effect and ±100 for the full control effect
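Hydroperoxide product was detected by ferrous iron/xylenol orange as the 573 to 405 nm absorbance ratio. Arachidonic acid at 40 uM (final) was turned over for 30 min at room temperature by 150 nM human 12hLO, pH 7.0 Hepes buffer, after 15 min compound preincubation.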
PTHR1 ag = PTHR1 (human) receptor agonism; HEK293 GP2 PTHR1 cells, GloSensor cAMP luminescence, 1 h; Potency, µM (highest dose often 115 µM), without a hit: at the highest dose activation, actives largely listed as activators; 410,000 tested, 0.075% active; also: potency is read from the fitted curve at half-maximal effect; nearly all actives have a fitted effect of over 55% in size
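HEK-293-derived GP2 cells expressing PTHR1 and a GloSensor cAMP reporter, 3,000/well, plated overnight, given luciferin plus IBMX (each 0.5 mM as added) for 1 h at 37 °C, then compound for 1 h at 37 °C. Luminescence was read after 15 min at room temperature.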
Giardia killer = kills Giardia lamblia | Giardia lamblia trophozoite viability | activity change, % at 7.66 µM, hits read low | 340,000 tested, 0.15% active | AID 540267; in the data active = activity change below about -80%; inconclusive = between about -30% and that limit;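 also: parasites exposed to compound for two days anaerobically before the ATP read; % is scaled to controls: 0 for no effect and ±100 for the full control effect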
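Luminescent ATP signal served as the viability read-out, measured 15-30 min after adding ATP detection reagent to trophozoites that had been incubated with compounds for 48 hrs at 37 deg C anaerobically at 100 cells/well.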
miR-21 reporter = miR-21 reporter, rising signal; HeLa miR-21 FLuc reporter, luciferase, 48 h; Potency, µM (doses to about 38.3 µM), for inactives: at the highest dose reporter change, positive = more light; 340,000 tested, under 10 active; AID 2288; active = well fitted rising curve with a large enough effect; inconclusive = small, poorly fitted or top-dose-only effect; inactive = no such curve, though single readings can be large or run the other way;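 further: % of control where 0% means no effect; miR-21 action dims this reporter so a rising signal means less miR-21 action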
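HeLa miR-21-FLuc reporter line, endogenous miR-21; 2000 cells/well in DMEM/10% FBS; compound titration up to ~40uM final, 48 h, 37 degree Celsius; luciferase detection reagent, 15 min lysis, CCD luminescence.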
Starred values were filed as active, the others as inactive; [ ] = remark or other dose. Rows were chosen to be rich in hits. Some 1.3% of all compounds tested hit in one or more screens of this group. Unless noted, calls follow the shape of the dose curve; as a rule, active = well fitted curve in the direction sought with a large enough effect; inconclusive = small, poorly fitted or top-dose-only effect, or another doubt; inactive = no such curve, though single readings can be large; an effect the other way counts as inactive or inconclusive.

O=C(CCc1ccccc1)N1CCC2(CC1)NC(=O)N(c1ccccc1)N2 was read as 12-LOX inh 2.24µM*.
`COc1cccc(CCC(=O)N2CCC3(CC2)NC(=O)N(c2cccc(F)c2)N3)c1` gave 12-LOX inh 5.62µM*.
For COc1cccc(CCC(=O)N2CCC3(CC2)CCC(O)(CN(C)C)CC3)c1 the results were 12-LOX inh 54.8%.
COc1cccc(CCC(=O)N2CCC3(CC2)NC(=O)N(c2ccccc2)N3)c1 was read as 12-LOX inh 2.51µM*.
CCOc1cc(/C=C2\NC(=S)N(C)C2=O)ccc1OCc1ccc(C(=O)O)cc1 was read as ERG-DNA inh -16.1%, PINK1 expr mod 0.2%, 12-LOX inh -27.5%, PTHR1 ag -30.7%, Giardia killer -3.1 and miR-21 reporter 0.1%.
`CN(CC1CCOCC1)C(=O)Nc1cccc(Cl)c1` gave 12-LOX inh 27.4%.
Screening CC1(C)CCCC(C)(C#CCN2CCN(C(c3ccccc3)c3ccccc3)CC2)O1 (stereo not given) returned 12-LOX inh 10µM*.
Screening CC1(C)CCCC(C)(C#CCN2CCN(c3ccccc3)CC2)O1 (stereo not given) returned 12-LOX inh -26.5%.
For CCn1ccc(C(=O)NC2CCCN(c3cc(-c4ccc(Cl)cc4)[nH]n3)C2)n1 (stereo not given) the results were 12-LOX inh 54.7%.
`CCc1ccc(OCC(=O)NNC(=O)C2CCC2)cc1` gave ERG-DNA inh 5.3%, PINK1 expr mod -0.1%, 12-LOX inh -16.8%, PTHR1 ag inactive and Giardia killer -8.9.
For COC(=O)C1=CN(c2ccc(F)cc2)C(N)=C(C#N)C1c1ccccc1 (stereo not given) the results were 12-LOX inh 44.7µM* and PTHR1 ag inactive.
For CC1CCCN(CCCNC(=O)c2ccc3c(c2)N(Cc2ccc(Cl)cc2)C(=O)c2ccccc2S3(=O)=O)C1 (stereo not given) the results were ERG-DNA inh -5.1%, PINK1 expr mod 2.3%, 12-LOX inh inconclusive, PTHR1 ag -24.9% and miR-21 reporter inconclusive.
COc1cccc(/C=N/Nc2snc(SC)c2C#N)c1O was read as ERG-DNA inh 9.6%, PINK1 expr mod 12.6µM*, 12-LOX inh -13.4%, PTHR1 ag -92.8%, Giardia killer -13.3 and miR-21 reporter 6.5%.
For S=C(NC1CCCCC1)c1ccccc1 the results were 12-LOX inh 31.6µM*.
Screening S=C(Nc1ccc(Nc2ccccc2)cc1)NC1CCCCCC1 returned ERG-DNA inh 0.6%, PINK1 expr mod inconclusive, 12-LOX inh 44.7µM*, PTHR1 ag -18.2%, Giardia killer 22.2 and miR-21 reporter 27.0%.

4 compounds already listed, arranged by formula weight, rising.
For S=C(NC1CCCCC1)c1ccccc1 the results were 12-LOX inh 31.6µM*.
COc1cccc(/C=N/Nc2snc(SC)c2C#N)c1O was read as ERG-DNA inh 9.6%, PINK1 expr mod 12.6µM*, 12-LOX inh -13.4%, PTHR1 ag -92.8%, Giardia killer -13.3 and miR-21 reporter 6.5%.
For CCn1ccc(C(=O)NC2CCCN(c3cc(-c4ccc(Cl)cc4)[nH]n3)C2)n1 (stereo not given) the results were 12-LOX inh 54.7%.
`COc1cccc(CCC(=O)N2CCC3(CC2)NC(=O)N(c2cccc(F)c2)N3)c1` gave 12-LOX inh 5.62µM*.

Remaining list, next part:
`Cc1ccc(-n2nnnc2SCC(=O)c2ccc3c(c2)NC(=O)CO3)c(C)c1` gave ERG-DNA inh 8.2%, PINK1 expr mod 2.9%[38.3 µM], 12-LOX inh inconclusive, PTHR1 ag inactive, Giardia killer 2.3 and miR-21 reporter -8.0%.
Nc1nc(Sc2ccc([N+](=O)[O-])c3nonc23)c2[nH]cnc2n1 was read as PINK1 expr mod 6.6%, 12-LOX inh 31.6µM*, PTHR1 ag -42.5% and Giardia killer -2.3.
O=C(Nc1ccc(Cl)cc1)N1CCOCC1 was read as ERG-DNA inh 3.7%, PINK1 expr mod 0.9%, 12-LOX inh 12.1%, PTHR1 ag inactive, Giardia killer 7.7 and miR-21 reporter -13.5%.
Screening CCCCOC(=O)c1ccc(NC(=S)N2CCN(c3ncc4c(=O)c(C(=O)O)cn(CC)c4n3)CC2)cc1 returned ERG-DNA inh -8.7%, PINK1 expr mod 28.2µM*, 12-LOX inh 0.0%, PTHR1 ag -46.2%, Giardia killer -22.5 and miR-21 reporter -7.2%.
`Cc1ccc(/C=C/C(=O)N2CCN(Cc3ccccc3)CC2)cc1` gave 12-LOX inh -4.1%.
`Cc1ccc(S(=O)c2ccc([N+](=O)[O-])c3nonc23)cc1` (stereo not given) gave PINK1 expr mod 6.0%, 12-LOX inh 2µM* and PTHR1 ag -41.9%.
Nc1ccc2c(c1)OC1(CCCCC1)O2 was read as ERG-DNA inh -1.3%, PINK1 expr mod 0.0%, 12-LOX inh 12.7%, PTHR1 ag -6.0%, Giardia killer -2.0 and miR-21 reporter -9.7%.
For CC(=O)C1=C(c2ccccc2)OC(N)=C(C#N)C1c1ccccc1C (stereo not given) the results were ERG-DNA inh 13.0%, PINK1 expr mod 3.4%, 12-LOX inh -16.8%, PTHR1 ag -22.1%, Giardia killer -11.8 and miR-21 reporter 0.8%.
`Cc1ccccc1C1C=C(c2ccccc2)OC(c2ccccc2)=C1C=O` (stereo not given) gave 12-LOX inh 5.62µM*.
COC(=O)CC1C(=O)NCCN1C(=S)Nc1ccc(F)cc1 (stereo not given) was read as ERG-DNA inh 3.3%, PINK1 expr mod -0.5%, 12-LOX inh 62.0%, PTHR1 ag inactive, Giardia killer 24.9 and miR-21 reporter 0.9%.
`N#C/C(=C/c1cccc(F)c1)S(=O)(=O)c1ccc(Br)cc1` gave 12-LOX inh 22.4µM*.
`N#C/C(=C\c1ccc(O)c(O)c1)S(=O)(=O)c1ccccc1` gave ERG-DNA inh 3.1%, PINK1 expr mod -2.1%, 12-LOX inh 3.16µM*, PTHR1 ag -4.7%[57.5 µM], Giardia killer -3.3 and miR-21 reporter -30.4%.
`Cc1cc(C)[n+](C)n1-c1ccccc1` gave 12-LOX inh 17.8µM*.
For O=C(CN1C(=O)/C(=C\c2ccco2)SC1=S)Nc1ccc(O)cc1C(=O)O the results were ERG-DNA inh -13.3%, PINK1 expr mod -1.4%, 12-LOX inh 25.1µM*, PTHR1 ag -5.4%, Giardia killer -4.6 and miR-21 reporter 0.9%.
Screening O=C(CCCN1C(=O)/C(=C/c2ccco2)SC1=S)Nc1ccccc1C(=O)O returned ERG-DNA inh 71.6%, PINK1 expr mod -0.7%, 12-LOX inh 31.6µM*, PTHR1 ag -2.9%, Giardia killer -5.8 and miR-21 reporter 1.9%.
Screening CC(C(=O)Nc1ccc(O)cc1C(=O)O)N1C(=O)/C(=C\c2cccs2)SC1=S (stereo not given) returned ERG-DNA inh 19.7%, PINK1 expr mod 3.1%, 12-LOX inh 31.6µM*, PTHR1 ag inactive, Giardia killer -15.4 and miR-21 reporter -4.1%.
For Cc1ccc(C)c([N+](=O)[O-])c1 the results were 12-LOX inh 1.1%.
Screening O=C(/C=C/Nc1ccccc1)c1ccc(Oc2ncccn2)cc1 returned ERG-DNA inh -4.2%, PINK1 expr mod 2.3%, 12-LOX inh 0.0%, PTHR1 ag -4.7%[57.5 µM], Giardia killer -10.6 and miR-21 reporter -51.6%.
